pIC50: −log10 of the molar value. Where two headings read alike, the source gives them in different places. Each block holds one compound with its values, some of them ahead of it.
What was measured:
[1] = target: AKT2 (Homo sapiens, UniProt P31751); test: Live cell AKT2 target engagement by NanoBRET competitive probe displacement in HEK293 cells; conditions: read-out: AKT2 IC50, 2 h at 37° C.
[2] = target: AKT1 WT (Homo sapiens, UniProt P31749); test: Live cell AKT1 WT target engagement by NanoBRET competitive probe displacement in HEK293 cells; conditions: read-out: AKT1 WT IC50, 2 h at 37° C.
[3] = target: AKT1 E17K (Homo sapiens, UniProt P31749, E17K); test: Live cell AKT1 E17K target engagement by NanoBRET competitive probe displacement in HEK293 cells; conditions: read-out: AKT1 E17K IC50, 2 h at 37° C.
[4] = system: LAPC4 prostate cancer cells, which express the AKT1 E17K allele; test: Antiproliferative effects in LAPC4 cells (CellTiter Glo, 72 h)
[5] = NanoBRET competitive probe displacement, live HEK293 cells
[6] = NanoBRET live cell target engagement, HEK293 cells, tested form: TFA
[7] = NanoBRET competitive probe displacement, live HEK293 cells, tested form: formate
[8] = read-out: LAPC4 proliferation IC50
[9] = NanoBRET live cell target engagement, HEK293 cells

Protein sequences, listed by entry. Tags and fused reporters are not part of them. Lines headed by an entry give the natural chain unless they say otherwise; changes in a name come on top.
UniProt P31751, whole entry: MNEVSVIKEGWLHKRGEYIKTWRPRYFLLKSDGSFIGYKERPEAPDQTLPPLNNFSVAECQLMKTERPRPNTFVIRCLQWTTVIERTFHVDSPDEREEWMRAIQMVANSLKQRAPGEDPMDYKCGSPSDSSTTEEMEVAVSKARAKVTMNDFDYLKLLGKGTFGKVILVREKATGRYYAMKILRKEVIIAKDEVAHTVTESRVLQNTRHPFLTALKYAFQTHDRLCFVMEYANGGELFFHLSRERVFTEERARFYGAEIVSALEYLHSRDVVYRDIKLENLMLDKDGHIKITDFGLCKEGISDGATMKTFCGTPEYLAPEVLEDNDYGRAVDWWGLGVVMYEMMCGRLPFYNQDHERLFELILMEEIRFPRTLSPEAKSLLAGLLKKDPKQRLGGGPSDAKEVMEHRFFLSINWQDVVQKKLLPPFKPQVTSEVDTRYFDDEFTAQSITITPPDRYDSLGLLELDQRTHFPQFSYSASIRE
UniProt P31749, whole entry: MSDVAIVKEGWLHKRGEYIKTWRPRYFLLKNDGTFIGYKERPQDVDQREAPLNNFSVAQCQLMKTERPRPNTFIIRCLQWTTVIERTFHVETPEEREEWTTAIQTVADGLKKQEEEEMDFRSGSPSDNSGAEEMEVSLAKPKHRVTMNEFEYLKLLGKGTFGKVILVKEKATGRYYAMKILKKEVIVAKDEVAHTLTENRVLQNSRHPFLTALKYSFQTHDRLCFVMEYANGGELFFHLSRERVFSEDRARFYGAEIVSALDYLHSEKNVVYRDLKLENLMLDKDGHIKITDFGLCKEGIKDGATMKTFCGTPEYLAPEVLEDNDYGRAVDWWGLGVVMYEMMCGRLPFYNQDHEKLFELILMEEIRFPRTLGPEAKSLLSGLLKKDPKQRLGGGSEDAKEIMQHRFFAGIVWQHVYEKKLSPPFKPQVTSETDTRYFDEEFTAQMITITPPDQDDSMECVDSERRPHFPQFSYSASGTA
UniProt P31749, whole entry E17K: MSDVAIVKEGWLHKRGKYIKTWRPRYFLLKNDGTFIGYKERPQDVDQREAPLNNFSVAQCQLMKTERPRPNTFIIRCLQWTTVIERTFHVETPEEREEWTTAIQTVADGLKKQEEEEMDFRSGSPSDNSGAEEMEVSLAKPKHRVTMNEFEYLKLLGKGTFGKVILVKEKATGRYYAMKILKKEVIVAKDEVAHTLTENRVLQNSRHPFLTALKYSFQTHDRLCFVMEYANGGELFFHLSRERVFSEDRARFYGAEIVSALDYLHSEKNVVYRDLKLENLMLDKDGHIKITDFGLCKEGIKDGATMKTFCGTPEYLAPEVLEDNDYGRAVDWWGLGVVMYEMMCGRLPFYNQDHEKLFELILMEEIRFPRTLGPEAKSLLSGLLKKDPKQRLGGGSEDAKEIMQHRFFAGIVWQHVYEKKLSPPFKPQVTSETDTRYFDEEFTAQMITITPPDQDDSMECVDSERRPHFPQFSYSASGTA

SMILES: Nc1ncccc1-c1nc2ccc(-n3nccn3)nc2n1-c1ccc2c(c1)CC[C@@H]2NC(=O)c1cnc(C2CC2)o1
pIC50 [1, 5]: 5.80
pIC50 [2, 5]: 7.58

pIC50 [3, 6]: 7.80
pIC50 ([4]; read-out: LAPC4 proliferation IC50, tested form: TFA): 6.16
pIC50 [1, 6]: 7.05
pIC50 [2, 6]: 8.46
SMILES: COc1cc(C(=O)N[C@H]2CCc3cc(-n4c(-c5cccnc5N)nc5ccc(-n6nccn6)nc54)ccc32)cc(OC)n1

SMILES: N#Cc1nc(C2CC2)cc(N2CCC(N[C@H]3CCc4cc(-n5c(-c6cccnc6N)nc6ccc(-n7cccn7)nc65)ccc43)CC2)n1
pIC50 [3, 7]: 7.21
pIC50 [1, 7]: 6.45
pIC50 [2, 7]: 7.47

pIC50 [1, 5]: 5.53
pIC50 [2, 5]: 7.13
SMILES: Nc1ncccc1-c1nc2ccc(-n3cccn3)nc2n1-c1ccc2c(c1)CCC2NC1CCN(C(=O)C2CC2)CC1 (stereo not drawn)

SMILES: Cc1cc(C(=O)N[C@H]2CCc3cc(-n4c(-c5cccnc5N)nc5ccc(-n6cccn6)nc54)ccc32)c2c(n1)OCC2
pIC50 [3, 5]: 6.92
pIC50 [4, 8]: 5.78
pIC50 [1, 5]: 6.86
pIC50 [2, 5]: 8.11

pIC50 [1, 5]: 5.37
pIC50 [2, 5]: 6.88
SMILES: Nc1ncccc1-c1nc2ccc(-c3ccn(C4COC4)n3)nc2n1-c1ccc2c(c1)CC[C@@H]2NC1CCN(C(=O)C2CC2)CC1

SMILES: Nc1ncccc1-c1nc2ccc(-n3cccn3)nc2n1-c1ccc2c(c1)CC[C@@H]2NC(=O)c1cncc2c1CCO2
pIC50 [3, 9]: 7.25
pIC50 [4, 8]: 5.77
pIC50 [1, 9]: 7.20
pIC50 [2, 9]: 8.15
